Laboratory results from patent US11358986B2, “IL-2RBETA binding compounds” (MEDIKINE, INC., priority 2018, dated 2022).

How the values were obtained:
NK-92 cells = experiment: STAT5 phosphorylation in NK-92 cells; type: cell-based, human; details: Western Blot, Anti-hIL-2 IgG added to all samples
Experimental: NK-92 cells were seeded in a 24-well plate at 4×10^5 cells, in 1 mL starvation medium (SM), and incubated overnight at 37° C., 5% CO2. The starvation medium contained RPMI 1640+20% FBS+2 mM L-glutamine+1 mM NaPyr+10 mM HEPES+0.1 mM BME (no rhIL-2 supplement).
Treatment mixtures were of 1 pg/mL Anti-hIL-2 neutralizing antibody (0.2 mg/mL stock) or goat IgG control (1 mg/mL stock) were prepared.
The treatment mixtures and the antibody mix were added to the cells for 30 min at 37° C., 5% CO2. Each sample was then transferred to a 1.5 mL microfuge tube and spun down at 1,500 RPM for 5 minutes. The cells were washed in 1 mL PBS and centrifuged again.
A phosphatase and protease inhibitor cocktail (Thermo #78442) were added to mPER buffer at a 1:100 dilution. After the cells were pelleted, 50 μL of mPER buffer was added to each sample and pipetted repeatedly to homogenize.
The lysates were centrifuged at 14,000 RPM for 5 min at RT. The supernatants were transferred to clean tubes and stored frozen at −80° C. […]
The heterodimer of Example 14 was incubated with NK92 cells and TF-1β cells and the STAT5 phosphorylation measured as a function of concentration using the methods described in Examples 7 and 8.

[1] = test system: resting CD8 T-cells, resting CD4 T-cells, and resting Treg (CD25hi CD127lo) cells; experiment: pSTAT5 activation in resting human T-cell populations by flow cytometry; type: cell-based; details: 30 min
Experimental: pSTAT5 activation of resting CD8 T-cells, resting CD4 T-cells, and resting Treg (CD25hi CD127lo) cells by the heterodimer of Example 14 was determined using the method described in Example 17.
The incubation time was 30 min and pSTAT5 was measured by flow cytometry.

IL-2Rβγc subunits = details: DiscoverX product specifications; read-out: IC50 of β-Gal activity; cited from earlier work
[2] = test system: melanoma and renal carcinoma; details: patients with melanoma and renal carcinoma; cited from earlier work

Substance: IL-2: Recombinant human Interleukin-2 (IL-2), natural cytokine and positive control
- STAT5 phosphorylation with IL-2 neutralizing antibody added (NK-92 cells): suppressed
- potency of pSTAT5 activation in the different human T-cell populations [1]: potency bias for Treg and CD4 T-cells
- IC50 (IL-2Rβγc subunits): ~26 nM
- durable responses in patients [2]: up to 10%
